# Laboratory results published in patent publication US20200080076A1, “Expressed Barcode Libraries and Uses Thereof” (The Broad Institute, Inc., priority 2018, published 2020).
# System: Watermelon-transduced PC-9 cells
# Experiment: Sensitivity of Watermelon-transduced PC-9 cells to EGFR-TKIs, number of mCherry objects
# Type: cell-based
# Conditions: varying concentrations (FIGS. 6B and 6C)
# Excerpt: FIGS. 6A-6D show the modeling of non-inherited drug resistance of PC-9 cells to EGFR tyrosine kinase inhibitors (EGFR-TKI).
smiles,measurement,value
COc1cc2ncnc(Nc3ccc(F)c(Cl)c3)c2cc1OCCCN1CCOCC1 [gefitinib],sensitivity of cells to EGFR-TKI (number of mCherry objects),sensitive
